target: JAK2 kinase domain (JH1) (Homo sapiens (Human), UniProt O60674); experiment: JAK2 Radioactive Kinase Assay; type: biochemical; conditions: compound at 10 μM; ATP 10 μM

Amino acid sequences for entries named in this document (tags omitted). Residues count along the entry.
UniProt O60674, 849-1124 limits assumed: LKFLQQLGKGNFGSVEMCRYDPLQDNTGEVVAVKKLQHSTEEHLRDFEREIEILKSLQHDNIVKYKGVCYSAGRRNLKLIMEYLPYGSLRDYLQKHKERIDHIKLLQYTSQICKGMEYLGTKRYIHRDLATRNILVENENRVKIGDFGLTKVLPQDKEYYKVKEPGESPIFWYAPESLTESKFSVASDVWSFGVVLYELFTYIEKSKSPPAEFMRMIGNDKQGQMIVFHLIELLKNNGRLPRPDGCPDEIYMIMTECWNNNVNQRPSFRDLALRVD

SMILES | JAK2 JH1% Inhibition @ 10 μM
CNc1cc(Nc2cccnc2OC2CC2)nc2c(C(=O)NC3CC4(COC4)C3)cnn12 | B (percent inhibition at 10 μM between 50 and 70)
CNc1cc(Nc2cccc(N3CCOC4(CCOC4)C3)n2)nc2c(C(=O)NC3CC3)cnn12 (stereo not drawn) | A (percent inhibition at 10 μM lower than 50)
CNc1cc(Nc2cc(F)cn(C3CCOCC3)c2=O)nc2c(C(=O)NCC(C)(C)CO)cnn12 | A (percent inhibition at 10 μM lower than 50)
